In general, IC50 refers to the concentration at which inhibition is half-maximal. A lower IC50 goes with higher potency.

Amino acid sequences for entries named in this document (tags omitted). A change or cut given only in a name is not applied to a line headed by its entry.
UniProt P23458: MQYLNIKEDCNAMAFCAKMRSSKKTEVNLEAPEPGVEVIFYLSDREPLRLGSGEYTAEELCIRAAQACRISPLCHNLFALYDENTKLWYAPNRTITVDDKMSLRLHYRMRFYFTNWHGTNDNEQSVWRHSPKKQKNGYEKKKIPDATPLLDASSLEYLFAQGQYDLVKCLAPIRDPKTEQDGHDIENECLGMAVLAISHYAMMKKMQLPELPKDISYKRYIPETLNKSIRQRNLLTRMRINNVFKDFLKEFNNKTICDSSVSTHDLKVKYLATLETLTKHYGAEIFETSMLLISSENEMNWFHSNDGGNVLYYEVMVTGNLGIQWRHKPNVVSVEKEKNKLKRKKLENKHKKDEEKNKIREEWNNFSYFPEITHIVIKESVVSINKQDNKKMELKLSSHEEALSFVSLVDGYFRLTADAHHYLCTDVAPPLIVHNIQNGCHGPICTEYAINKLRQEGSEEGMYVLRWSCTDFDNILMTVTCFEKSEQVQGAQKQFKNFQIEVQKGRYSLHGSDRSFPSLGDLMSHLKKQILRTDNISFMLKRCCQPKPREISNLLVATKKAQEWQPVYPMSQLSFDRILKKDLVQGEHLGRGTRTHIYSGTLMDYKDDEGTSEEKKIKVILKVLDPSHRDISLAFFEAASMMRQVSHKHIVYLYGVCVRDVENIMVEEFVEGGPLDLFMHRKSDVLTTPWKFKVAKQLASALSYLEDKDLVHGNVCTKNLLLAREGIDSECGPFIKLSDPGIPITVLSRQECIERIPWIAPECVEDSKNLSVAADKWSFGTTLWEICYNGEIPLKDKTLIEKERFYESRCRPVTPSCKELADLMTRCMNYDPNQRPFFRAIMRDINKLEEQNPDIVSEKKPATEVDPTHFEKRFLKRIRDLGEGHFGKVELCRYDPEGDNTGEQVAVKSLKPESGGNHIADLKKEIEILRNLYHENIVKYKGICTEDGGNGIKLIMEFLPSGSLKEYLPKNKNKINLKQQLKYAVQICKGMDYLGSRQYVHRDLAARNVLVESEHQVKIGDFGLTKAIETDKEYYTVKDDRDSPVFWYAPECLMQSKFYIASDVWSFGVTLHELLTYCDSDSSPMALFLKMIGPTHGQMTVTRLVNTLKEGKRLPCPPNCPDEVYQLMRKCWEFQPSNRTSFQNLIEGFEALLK

The assay addresses Tyrosine-protein kinase JAK1 (Homo sapiens, UniProt P23458). As to the kind of experiment: HTRF Biochemical Assay. The conditions noted are these: 25 °C. (In general: Time-resolved FRET reads energy transfer from a long-lived donor to a nearby acceptor.)

As to `COC1(c2nc3nc(-c4noc(=O)[nH]4)nc(-c4cncc(Cl)c4)c3n2C[C@H]2CC[C@H](C)CC2)CCCCC1` [US9328099, 48-2], the midpoint of inhibition, the IC50, lay at 113 nM.
